This experiment deals with Vascular endothelial growth factor receptor 1 (Homo sapiens, UniProt P17948).

Protein sequences, listed by entry. Tags and fused reporters are not part of them.
UniProt P17948, whole entry: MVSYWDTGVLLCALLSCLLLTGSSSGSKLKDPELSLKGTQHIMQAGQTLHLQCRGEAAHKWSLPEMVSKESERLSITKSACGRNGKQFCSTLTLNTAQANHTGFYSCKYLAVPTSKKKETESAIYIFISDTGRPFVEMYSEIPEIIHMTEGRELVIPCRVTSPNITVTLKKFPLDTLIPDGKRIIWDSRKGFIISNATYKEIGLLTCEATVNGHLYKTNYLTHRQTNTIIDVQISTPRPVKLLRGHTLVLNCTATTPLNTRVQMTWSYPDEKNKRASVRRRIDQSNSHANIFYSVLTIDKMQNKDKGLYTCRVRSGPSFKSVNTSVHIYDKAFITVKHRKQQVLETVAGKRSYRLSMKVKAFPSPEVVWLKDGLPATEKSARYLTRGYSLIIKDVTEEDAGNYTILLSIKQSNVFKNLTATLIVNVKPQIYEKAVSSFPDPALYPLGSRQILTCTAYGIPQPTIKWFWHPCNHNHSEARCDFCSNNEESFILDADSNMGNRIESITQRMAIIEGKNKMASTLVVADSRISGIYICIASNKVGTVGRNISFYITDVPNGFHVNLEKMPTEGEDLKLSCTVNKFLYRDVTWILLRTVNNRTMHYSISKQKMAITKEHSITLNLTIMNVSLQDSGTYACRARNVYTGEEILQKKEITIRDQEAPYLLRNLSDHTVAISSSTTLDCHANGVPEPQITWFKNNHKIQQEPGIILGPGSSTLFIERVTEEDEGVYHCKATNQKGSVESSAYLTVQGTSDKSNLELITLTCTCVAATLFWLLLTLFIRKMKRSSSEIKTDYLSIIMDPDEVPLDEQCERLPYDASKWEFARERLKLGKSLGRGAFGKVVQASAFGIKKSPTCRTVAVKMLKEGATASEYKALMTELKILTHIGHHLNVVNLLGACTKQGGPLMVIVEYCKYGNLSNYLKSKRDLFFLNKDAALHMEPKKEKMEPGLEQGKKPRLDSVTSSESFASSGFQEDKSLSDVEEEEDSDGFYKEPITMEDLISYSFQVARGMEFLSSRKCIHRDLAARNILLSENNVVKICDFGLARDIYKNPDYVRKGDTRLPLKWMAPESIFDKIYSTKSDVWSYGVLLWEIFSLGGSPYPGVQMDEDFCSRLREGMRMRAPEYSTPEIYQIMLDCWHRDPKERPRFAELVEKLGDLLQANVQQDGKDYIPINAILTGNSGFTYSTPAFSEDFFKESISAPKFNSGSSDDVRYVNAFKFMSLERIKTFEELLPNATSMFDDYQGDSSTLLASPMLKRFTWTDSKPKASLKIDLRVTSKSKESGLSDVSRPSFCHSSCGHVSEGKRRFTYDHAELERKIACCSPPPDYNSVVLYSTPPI

The values below come from ChEMBL document CHEMBL1132549, “Design and structure-activity relationship of a new class of potent VEGF receptor tyrosine kinase inhibitors” (J Med Chem, 1999).

SMILES strings stand for the structures. pIC50: −log10 of the molar value.

For orientation: pIC50 means −log10 of the IC50, conventionally taken in molar units. Higher therefore signals a low IC50.

Compound `COc1cc2c(Nc3ccc(Cl)cc3F)ncnc2cc1OCCCN1CCOCC1` had a pIC50 of 6.70.
